Test results taken from US10301371B2, “Cyclic monomer and dimer peptides having integrin antagonist activity” (Protagonist Therapeutics, Inc., priority 2014, dated 2019).
Where two headings read alike, the source gives them in different places.

Target: T1, rh integrin α4β7 (Homo sapiens, UniProt P13612+P26010, DEL724-798)
T1 construct: purchased R&D Systems 5397-A30
T1 sequence (P13612 34-977 limits assumed): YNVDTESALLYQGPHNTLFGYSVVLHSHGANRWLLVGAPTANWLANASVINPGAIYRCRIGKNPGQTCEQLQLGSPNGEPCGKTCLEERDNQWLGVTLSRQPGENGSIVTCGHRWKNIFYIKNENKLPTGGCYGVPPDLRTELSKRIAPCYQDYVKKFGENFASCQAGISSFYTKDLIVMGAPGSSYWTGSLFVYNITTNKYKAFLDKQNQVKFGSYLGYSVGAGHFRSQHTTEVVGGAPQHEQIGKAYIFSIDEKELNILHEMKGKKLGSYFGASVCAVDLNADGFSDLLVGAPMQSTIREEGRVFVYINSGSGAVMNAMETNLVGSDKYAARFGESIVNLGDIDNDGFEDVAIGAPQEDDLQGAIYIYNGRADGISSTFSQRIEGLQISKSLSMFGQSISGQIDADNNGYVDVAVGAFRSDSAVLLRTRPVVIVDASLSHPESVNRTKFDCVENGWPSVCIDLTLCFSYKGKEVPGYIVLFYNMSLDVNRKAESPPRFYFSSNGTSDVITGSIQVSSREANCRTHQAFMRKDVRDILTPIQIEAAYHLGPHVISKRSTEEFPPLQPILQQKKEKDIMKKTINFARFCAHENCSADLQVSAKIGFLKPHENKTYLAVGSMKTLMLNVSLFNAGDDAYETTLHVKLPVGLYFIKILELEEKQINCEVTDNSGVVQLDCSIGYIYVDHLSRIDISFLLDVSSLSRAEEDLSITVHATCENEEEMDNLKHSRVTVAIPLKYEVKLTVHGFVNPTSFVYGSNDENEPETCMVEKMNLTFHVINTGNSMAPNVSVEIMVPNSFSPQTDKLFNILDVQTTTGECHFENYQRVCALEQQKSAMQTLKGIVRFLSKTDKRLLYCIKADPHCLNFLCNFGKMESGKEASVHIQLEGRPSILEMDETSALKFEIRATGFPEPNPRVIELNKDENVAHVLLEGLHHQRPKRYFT
T1 sequence (P26010 20-723 limits assumed): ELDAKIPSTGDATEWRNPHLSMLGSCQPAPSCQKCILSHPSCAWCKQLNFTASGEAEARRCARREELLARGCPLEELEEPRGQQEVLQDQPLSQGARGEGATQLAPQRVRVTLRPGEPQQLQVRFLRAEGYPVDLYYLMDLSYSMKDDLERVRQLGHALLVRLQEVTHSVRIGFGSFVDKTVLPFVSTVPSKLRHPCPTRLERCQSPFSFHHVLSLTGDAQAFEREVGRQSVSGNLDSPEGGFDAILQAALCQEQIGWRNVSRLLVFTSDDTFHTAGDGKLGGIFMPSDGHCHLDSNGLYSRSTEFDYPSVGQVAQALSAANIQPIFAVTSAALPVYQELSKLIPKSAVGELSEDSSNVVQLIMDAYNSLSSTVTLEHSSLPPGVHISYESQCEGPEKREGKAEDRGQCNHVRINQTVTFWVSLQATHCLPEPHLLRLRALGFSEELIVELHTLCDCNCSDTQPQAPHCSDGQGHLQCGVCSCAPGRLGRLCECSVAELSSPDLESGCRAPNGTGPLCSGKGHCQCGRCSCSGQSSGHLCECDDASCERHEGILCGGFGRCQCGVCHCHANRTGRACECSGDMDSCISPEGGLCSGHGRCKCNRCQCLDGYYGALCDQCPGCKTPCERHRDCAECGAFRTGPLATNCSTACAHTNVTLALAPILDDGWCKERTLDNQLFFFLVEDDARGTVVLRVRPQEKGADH
Assay: α4β7-MAdCAM Competition ELISA
Assay type: binding
Settings: potency
Experimental: α4β7-MAdCAM Competition ELISA
A nickel coated plate (Pierce #15442) is coated with rh integrin α4β7 (R&D Systems #5397-A30) at 800 ng/well and incubated at room temperature with shaking for 1 hr. The solution iss then remove by shaking and blocked with assay buffer (50 mM Tris-HCl pH7.6, 150 mM NaCl, 1 mM MnCl2 or MgCl2, 0.05% Tween-20 and 0.5% BSA) at 250 ul/well. The plate was then incubated at room temperature for 1 hr. Each well was washed 3 times with wash buffer (50 mM Tris-HCl pH7.6, 100 mM NaCl, 1 mM MnCl2 or MgCl2, 0.05% Tween-20). To each well was added 25 ul of a serial dilution (3-fold dilutions in assay buffer) of peptides starting at 20 μM. 25 ul of recombinant human MAdCAM-1 (R&D Systems #6056-MC) was then added to each well at a fixed concentration 20 nM. The final starting peptide concentration was 10 μM, and the final MAdCAM-1 concentration was 10 nM. The plates were then incubated at room temperature for 1 hr to reach binding equilibrium. The wells were then washed three times with wash buffer. 50 ul of mouse antihuman IgG1-HRP (Invitrogen # A10648) diluted in 1:2000 in assay buffer was then added to each well. The wells are incubated at room temperature for 45 min with shaking. The wells were then washed 3 times with wash buffer. 100 ul of TMB were then added to each well and closely observe during development time. The reaction was stopped with 2N H2SO4 and absorbance was read at 450 nm.

| Compound | IC50 (read-out: ELISA a4b7) | IC50 (ELISA a4b7 (nM)) |
| --- | --- | --- |
| CC(C)C[C@@H]1NC(=O)[C@H]([C@@H](C)O)NC(=O)[C@H](CC(=O)O)NC(=O)[C@H](CO)NC(=O)[C@H](CCCNC(=N)N)N(C)C(=O)[C@@H](C)NC(=O)[C@@H](CC(N)=O)NC1=O [compound 478] | > 1000 nM |  |
| CC(C)C[C@@H]1NC(=O)[C@H]([C@@H](C)O)NC(=O)[C@H](CC(=O)O)NC(=O)[C@H](CO)NC(=O)[C@H](CCCNC(=N)N)N(C)C(=O)[C@@H](Cc2c[nH]cn2)NC(=O)[C@@H](C)NC1=O [compound 480] | > 1000 nM |  |
| CC(C)C[C@@H]1NC(=O)[C@H]([C@@H](C)O)NC(=O)[C@H](CC(=O)O)NC(=O)[C@H](CO)NC(=O)[C@H](CCCNC(=N)N)N(C)C(=O)[C@@H](Cc2c[nH]cn2)NC(=O)[C@@H](C)NC1=O [compound 481] | 100 to 1000 nM |  |
| CC(C)C[C@@H]1NC(=O)[C@H]([C@@H](C)O)NC(=O)[C@H](CC(=O)O)NC(=O)[C@H](CO)NC(=O)[C@H](CCCNC(=N)N)N(C)C(=O)[C@@H](C)NC(=O)[C@@H](CCC(=O)O)NC1=O [compound 482] | > 1000 nM |  |
| CC(C)C[C@@H]1NC(=O)[C@H]([C@@H](C)O)NC(=O)[C@H](CC(=O)O)NC(=O)[C@H](CO)NC(=O)[C@H](CCCNC(=N)N)N(C)C(=O)[C@@H](CCCCN)NC(=O)[C@@H](C)NC1=O [compound 485] | > 1000 nM |  |
| CC(C)C[C@@H]1NC(=O)[C@H]([C@@H](C)O)NC(=O)[C@H](CC(=O)O)NC(=O)[C@H](CO)NC(=O)[C@H](CCCNC(=N)N)N(C)C(=O)[C@@H](CCCCN)NC(=O)[C@@H](C)NC1=O [compound 487] | 100 to 1000 nM |  |
| CC(C)C[C@@H]1NC(=O)[C@H]([C@@H](C)O)NC(=O)[C@H](CC(=O)O)NC(=O)[C@H](CO)NC(=O)[C@H](CCCNC(=N)N)N(C)C(=O)[C@@H](C)NC(=O)[C@@H](Cc2c[nH]cn2)NC1=O [compound 490] | > 1000 nM |  |
| CC(C)C[C@@H]1NC(=O)[C@H]([C@@H](C)O)NC(=O)[C@H](CC(=O)O)NC(=O)[C@H](CO)NC(=O)[C@H](CCCNC(=N)N)N(C)C(=O)[C@@H](C)NC(=O)[C@@H](Cc2c[nH]cn2)NC1=O [compound 491] | 100 to 1000 nM |  |
| CC(C)C[C@@H]1NC(=O)[C@H]([C@@H](C)O)NC(=O)[C@H](CC(=O)O)NC(=O)[C@H](CO)NC(=O)[C@H](CCCNC(=N)N)N(C)C(=O)[C@@H](C)NC(=O)[C@@H](Cc2ccccc2)NC1=O [compound 492] | > 1000 nM |  |
| CC(C)C[C@@H]1NC(=O)[C@H]([C@@H](C)O)NC(=O)[C@H](CC(=O)O)NC(=O)[C@H](CO)NC(=O)[C@H](CCCNC(=N)N)N(C)C(=O)[C@@H](C)NC(=O)[C@@H](Cc2ccccc2)NC1=O [compound 493] | 100 to 1000 nM |  |
| CC(C)C[C@@H]1NC(=O)[C@H]([C@@H](C)O)NC(=O)[C@H](CC(=O)O)NC(=O)[C@H](CO)NC(=O)[C@H](CCCNC(=N)N)N(C)C(=O)[C@@H](Cc2ccccc2)NC(=O)[C@@H](C)NC1=O [compound 494] | > 1000 nM |  |
| CC(C)C[C@@H]1NC(=O)[C@H]([C@@H](C)O)NC(=O)[C@H](CC(=O)O)NC(=O)[C@H](CO)NC(=O)[C@H](CCCNC(=N)N)N(C)C(=O)[C@@H](CC(C)C)NC(=O)[C@@H](C)NC1=O [compound 496] |  | > 1000 nM |
| CC(C)C[C@@H]1NC(=O)[C@H]([C@@H](C)O)NC(=O)[C@H](CC(=O)O)NC(=O)[C@H](CO)NC(=O)[C@H](CCCNC(=N)N)N(C)C(=O)[C@@H](CC(C)C)NC(=O)[C@@H](C)NC1=O [compound 497] |  | 100 to 1000 nM |
| CC(C)C[C@@H]1NC(=O)[C@H]([C@@H](C)O)NC(=O)[C@H](CC(=O)O)NC(=O)[C@H](CO)NC(=O)[C@H](CCCNC(=N)N)N(C)C(=O)[C@H]2CCCN2C(=O)[C@@H](C)NC1=O [compound 498] | > 1000 nM |  |
| CC(C)C[C@@H]1NC(=O)[C@H]([C@@H](C)O)NC(=O)[C@H](CC(=O)O)NC(=O)[C@H](CO)NC(=O)[C@H](CCCNC(=N)N)N(C)C(=O)[C@H]2CCCN2C(=O)[C@@H](C)NC1=O [compound 499] | 100 to 1000 nM |  |
| CC(C)C[C@@H]1NC(=O)[C@H]([C@@H](C)O)NC(=O)[C@H](CC(=O)O)NC(=O)[C@H](CO)NC(=O)[C@H](CCCNC(=N)N)N(C)C(=O)[C@@H](CCCNC(=N)N)NC(=O)[C@@H](C)NC1=O [compound 500] |  | > 1000 nM |
| CC(C)C[C@@H]1NC(=O)[C@H]([C@@H](C)O)NC(=O)[C@H](CC(=O)O)NC(=O)[C@H](CO)NC(=O)[C@H](CCCNC(=N)N)N(C)C(=O)[C@@H](CCCNC(=N)N)NC(=O)[C@@H](C)NC1=O [compound 501] |  | 100 to 1000 nM |
| CC(C)C[C@@H]1NC(=O)[C@H]([C@@H](C)O)NC(=O)[C@H](CC(=O)O)NC(=O)[C@H](CO)NC(=O)[C@H](CCCNC(=N)N)N(C)C(=O)[C@H](C)NC(=O)[C@@H](C)NC1=O [compound 502] | > 1000 nM |  |
| CC(C)C[C@@H]1NC(=O)[C@H]([C@@H](C)O)NC(=O)[C@H](CC(=O)O)NC(=O)[C@H](CO)NC(=O)[C@H](CCCNC(=N)N)N(C)C(=O)[C@H](C)NC(=O)[C@@H](CCCCN)NC1=O [compound 503] | > 1000 nM |  |
| CC(C)C[C@@H]1NC(=O)[C@H]([C@@H](C)O)NC(=O)[C@H](CC(=O)O)NC(=O)[C@H](CO)NC(=O)[C@H](CCCNC(=N)N)N(C)C(=O)[C@@H](C)NC(=O)[C@@H](C)NC(=O)[C@H](C)NC1=O [compound 504] | > 1000 nM |  |
